# Laboratory results published in patent publication US12496309B2, “Method for treatment of pancreatitis” (NovMetaPharma Co., Ltd., priority 2020, dated 2025).
# The chains behind the UniProt entries cited, without tags or fusion partners. Where a name states a change or a piece, a line headed by the entry shows the natural chain unless it says otherwise.
# UniProt Q12809: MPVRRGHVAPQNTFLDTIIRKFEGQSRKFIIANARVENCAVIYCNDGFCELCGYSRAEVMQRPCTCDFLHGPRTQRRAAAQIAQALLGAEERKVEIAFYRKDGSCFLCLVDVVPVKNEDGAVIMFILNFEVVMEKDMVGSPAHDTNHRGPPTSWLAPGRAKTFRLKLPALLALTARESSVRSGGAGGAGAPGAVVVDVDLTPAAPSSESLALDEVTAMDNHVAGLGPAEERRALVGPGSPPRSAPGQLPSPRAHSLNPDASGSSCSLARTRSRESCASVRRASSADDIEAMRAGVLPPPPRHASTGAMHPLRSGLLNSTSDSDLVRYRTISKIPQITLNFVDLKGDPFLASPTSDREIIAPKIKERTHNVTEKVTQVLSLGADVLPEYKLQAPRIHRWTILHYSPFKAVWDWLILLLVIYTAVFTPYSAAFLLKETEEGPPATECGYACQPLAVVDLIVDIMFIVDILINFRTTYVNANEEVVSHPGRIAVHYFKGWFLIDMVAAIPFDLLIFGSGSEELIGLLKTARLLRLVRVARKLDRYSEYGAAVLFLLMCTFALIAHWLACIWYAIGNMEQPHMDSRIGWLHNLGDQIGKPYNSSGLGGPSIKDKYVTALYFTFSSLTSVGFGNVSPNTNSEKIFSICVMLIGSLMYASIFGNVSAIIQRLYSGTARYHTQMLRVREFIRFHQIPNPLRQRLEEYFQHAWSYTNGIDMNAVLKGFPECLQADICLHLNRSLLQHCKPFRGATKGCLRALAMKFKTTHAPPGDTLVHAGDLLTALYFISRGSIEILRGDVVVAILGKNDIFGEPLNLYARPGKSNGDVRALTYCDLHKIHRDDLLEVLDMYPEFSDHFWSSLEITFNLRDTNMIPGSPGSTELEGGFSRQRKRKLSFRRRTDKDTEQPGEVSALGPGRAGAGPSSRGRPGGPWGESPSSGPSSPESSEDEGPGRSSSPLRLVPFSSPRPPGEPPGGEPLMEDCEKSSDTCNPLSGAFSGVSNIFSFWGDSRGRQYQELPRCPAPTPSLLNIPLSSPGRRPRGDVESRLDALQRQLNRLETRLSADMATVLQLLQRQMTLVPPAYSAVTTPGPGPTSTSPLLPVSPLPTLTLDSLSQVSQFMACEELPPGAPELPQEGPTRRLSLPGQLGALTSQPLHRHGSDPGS
# Molecular target: hERG (Homo sapiens, UniProt Q12809)
# Assay: hERG binding
compound,measurement,value
"CN(C)CCOc1ccc(/C(=C(/CCCO)c2ccccc2)c2ccc(O)cc2)cc1 [GSK5182, reference compound]",IC50,> 30 µM
